This is an account of results in article PMC6316070 (Marine Drugs, 2018).

Marks after values point to notes of the source that are not given here. Starred links: 1 amine or outer side, 2 acyl side, 3 side chain; linkers in the order of their positions; H or OH if unused. Non-standard residues stand in square brackets, D forms with d. Residues, ends and D or L forms follow the SMILES beside them. Pentanoyl(2-O,4-OH,5-Cl) = O=C(O)C(O)CC(O)CCl; X3 = C[C@H]1CCN([*:1])[C@@H]1C(=O)[*:2]; X2 = O=C([C@@H](CC(O)CCl)O[*:1])[*:2]; dLac(3-vinyl) = C=CC[C@@H](O)C(=O)O; NMeI = CC[CH](C)[CH](NC)C(=O)O; X1 = CC1CCN([*:1])C1C(=O)[*:2]; dHica = CC(C)C[C@@H](O)C(=O)O; NMeV = CN[C@H](C(=O)O)C(C)C; NMeA = CN[CH](C)C(=O)O; βAla = NCCC(=O)O

The data set concerns Brine shrimp (Artemia salina).
On to `CCC(C)C1NC(=O)C2C(C)CCN2C(=O)C(CC(O)CCl)OC(=O)CCNC(=O)C(C)N(C)C(=O)C(C(C)CC)N(C)C1=O` (centres unmarked) [Compound 1, Trichomide D] (cyclo([X1]I[NMeI][NMeA][βAla][Pentanoyl(2-O,4-OH,5-Cl)]); configuration not given here), for which the “Brine shrimp lethality (LD50)” value amounted to 0.48 µM.

Regarding `C=CC[C@H]1OC(=O)CCNC(=O)[C@H](C)N(C)C(=O)[C@H]([C@@H](C)CC)N(C)C(=O)[C@H]([C@@H](C)CC)NC(=O)[C@@H]2[C@@H](C)CCN2C1=O` [Compound 2, destruxin A5] (cyclo(I[NMeI][NMeA][βAla][dLac(3-vinyl)][X3])), the “Brine shrimp lethality (LD50)” value was found to be 0.74 µM.

Regarding `CC[C@H](C)[C@@H]1NC(=O)[C@@H]2[C@@H](C)CCN2C(=O)[C@@H](C[C@@H](C)CO)OC(=O)CCNC(=O)[C@H](C)N(C)C(=O)[C@H]([C@@H](C)CC)N(C)C1=O` [Compound 3, trichomide A], the “Brine shrimp lethality (LD50)” value was over 50 µM.

Consider `CC[C@H](C)[C@@H]1NC(=O)[C@@H]2CCCN2C(=O)[C@@H](CC(C)C)OC(=O)CCNC(=O)[C@H](C)N(C)C(=O)[C@H]([C@@H](C)CC)N(C)C1=O` [Compound 4, homodestruxin B] (cyclo(I[NMeI][NMeA][βAla][dHica]P)), for which the “Brine shrimp lethality (LD50)” value amounted to 3.22 µM.

Take `CC[C@H](C)[C@@H]1NC(=O)[C@@H]2CCCN2C(=O)[C@@H](CC(O)CCl)OC(=O)CCNC(=O)[C@H](C)N(C)C(=O)[C@H](C(C)C)N(C)C1=O` (some centres unmarked) [Compound 5, destruxin chlorohydrin] (cyclo(I[NMeV][NMeA][βAla][X2]P)): the “Brine shrimp lethality (LD50)” value is 2.47 µM.

Consider `C=CC[C@H]1OC(=O)CCNC(=O)[C@H](C)N(C)C(=O)[C@H](C(C)C)N(C)C(=O)[C@H]([C@@H](C)CC)NC(=O)[C@@H]2[C@@H](C)CCN2C1=O` [Compound 6, roseotoxin B] (cyclo(I[NMeV][NMeA][βAla][dLac(3-vinyl)][X3])), for which the “Brine shrimp lethality (LD50)” value stood at 2.81 µM.

`CC[C@H](C)[C@@H]1NC(=O)[C@@H]2[C@@H](C)CCN2C(=O)[C@@H](CC(C)CO)OC(=O)CCNC(=O)[C@H](C)N(C)C(=O)[C@H](C(C)C)N(C)C1=O` (some centres unmarked) [Compound 7, roseotoxin C]: the “Brine shrimp lethality (LD50)” value was over 50 µM.

On to `COc1cc2c(c(OC)c1OC)-c1ccc(OC)c(=O)cc1[C@@H](NC(C)=O)CC2` [colchicine, reference compound], for which the “Brine shrimp lethality (LD50)” value was 8.4 ^a μM.
